Reference: BindingDB's records for doi:10.1021/acs.jmedchem.5b01559 (University of Siena, 2016)
pKi: −log10 of the molar value.

Chains of the proteins cited; added tags and fusions are not shown.
UniProt P21554, whole entry: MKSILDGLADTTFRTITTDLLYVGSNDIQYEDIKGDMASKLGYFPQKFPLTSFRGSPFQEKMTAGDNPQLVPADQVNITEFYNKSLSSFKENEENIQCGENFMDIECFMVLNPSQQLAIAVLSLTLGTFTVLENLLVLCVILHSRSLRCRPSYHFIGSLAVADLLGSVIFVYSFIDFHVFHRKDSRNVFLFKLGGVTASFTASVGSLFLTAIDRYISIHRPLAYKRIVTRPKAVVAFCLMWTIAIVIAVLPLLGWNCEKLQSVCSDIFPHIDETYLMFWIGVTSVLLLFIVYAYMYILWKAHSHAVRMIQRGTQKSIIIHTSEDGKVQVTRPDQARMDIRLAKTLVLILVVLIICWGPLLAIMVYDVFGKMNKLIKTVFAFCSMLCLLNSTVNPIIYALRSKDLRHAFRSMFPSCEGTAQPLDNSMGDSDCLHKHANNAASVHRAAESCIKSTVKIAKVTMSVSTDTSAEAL
UniProt P34972, whole entry: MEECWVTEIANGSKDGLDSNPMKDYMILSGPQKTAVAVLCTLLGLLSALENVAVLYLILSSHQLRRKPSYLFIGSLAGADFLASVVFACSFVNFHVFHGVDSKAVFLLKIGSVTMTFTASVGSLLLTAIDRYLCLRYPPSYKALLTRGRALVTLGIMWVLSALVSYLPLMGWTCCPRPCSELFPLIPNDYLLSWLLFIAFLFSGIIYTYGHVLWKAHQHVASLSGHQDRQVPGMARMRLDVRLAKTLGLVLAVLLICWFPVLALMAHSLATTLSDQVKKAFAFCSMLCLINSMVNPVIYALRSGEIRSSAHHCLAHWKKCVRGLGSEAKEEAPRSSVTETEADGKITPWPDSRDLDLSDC

What was measured:
Cannabinoid receptor 1 = Cannabinoid receptor 1 (Homo sapiens, UniProt P21554)
Cannabinoid receptor 2 = Cannabinoid receptor 2 (Homo sapiens, UniProt P34972); assay: Displacement of [3H]-CP-55940 from human recombinant CB2 receptor expressed in HEK293 cells after 90 mins by Competition binding assay

| SMILES | pKi (Cannabinoid receptor 1) | pKi (Cannabinoid receptor 2) |
| --- | --- | --- |
| CCCCCn1c(=O)c(C(=O)NC23CC4CC(CC(C4)C2)C3)c(O)c2ccccc21 | 6.97 | 9.01 |
| CCCCCn1cc(C(=O)NC23CC4CC(CC(C4)C2)C3)c(=O)c2cc(C(C)C)c(F)cc21 | < 5.00 | 8.12 |
| CCCCCn1c(=O)c(C(=O)NC23CC4CC(CC(C4)C2)C3)cc2cc(C(C)C)ccc21 | 7.96 | 9.59 |
| CCCCCn1c2c(c(O)c(C(=O)NC34CC5CC(CC(C5)C3)C4)c1=O)CCCC2 | 8.06 | 9.43 |
